Earlier results as cited in patent publication EP1134585B1, “Biosensor and method for the monitoring of herbicides” (CONSIGLIO NAZIONALE DELLE RICERCHE, priority 2000, dated 2001).

Tested on: D1 protein Ser264→Gly
Conditions: Amaranthus retroflexus; cited from earlier work

In the case of `O=[N+]([O-])c1cc([N+](=O)[O-])c(O)c([N+](=O)[O-])c1`, the “Supersensitivity R/S” value is given as “Picric acid 0,3”.

Some compounds may have been tested in ways that are not shown here.
